This is an account of results in PubChem BioAssay AID2227 (Johns Hopkins Ion Channel Center, 2009).

By UniProt entry, the sequences of proteins in these tests, tags left out.
UniProt Q9QUQ5, whole entry: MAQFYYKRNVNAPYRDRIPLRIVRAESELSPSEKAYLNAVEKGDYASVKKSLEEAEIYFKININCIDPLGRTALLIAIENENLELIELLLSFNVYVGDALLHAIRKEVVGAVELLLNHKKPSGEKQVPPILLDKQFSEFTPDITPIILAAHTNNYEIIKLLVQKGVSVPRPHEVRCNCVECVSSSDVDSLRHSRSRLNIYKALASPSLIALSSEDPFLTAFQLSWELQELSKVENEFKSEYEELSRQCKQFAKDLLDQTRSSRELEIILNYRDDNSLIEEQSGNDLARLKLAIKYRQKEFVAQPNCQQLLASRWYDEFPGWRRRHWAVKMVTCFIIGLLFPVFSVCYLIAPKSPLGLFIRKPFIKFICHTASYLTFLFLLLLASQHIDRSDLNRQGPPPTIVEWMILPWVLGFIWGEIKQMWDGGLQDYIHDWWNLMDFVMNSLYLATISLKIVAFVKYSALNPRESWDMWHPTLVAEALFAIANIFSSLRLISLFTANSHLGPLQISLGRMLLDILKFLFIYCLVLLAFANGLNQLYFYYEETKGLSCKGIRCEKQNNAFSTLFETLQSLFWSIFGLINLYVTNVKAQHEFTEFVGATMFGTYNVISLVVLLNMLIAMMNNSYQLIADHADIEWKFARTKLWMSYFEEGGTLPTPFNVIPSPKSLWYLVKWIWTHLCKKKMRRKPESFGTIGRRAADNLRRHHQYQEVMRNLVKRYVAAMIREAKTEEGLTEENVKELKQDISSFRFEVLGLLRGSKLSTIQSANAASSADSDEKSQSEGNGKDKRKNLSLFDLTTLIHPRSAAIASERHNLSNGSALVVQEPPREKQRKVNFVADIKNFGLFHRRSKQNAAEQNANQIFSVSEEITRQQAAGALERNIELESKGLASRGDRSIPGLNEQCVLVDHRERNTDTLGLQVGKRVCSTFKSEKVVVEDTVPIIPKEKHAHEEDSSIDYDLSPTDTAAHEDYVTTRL

This is a selection; strong and weak results do not stand in their true shares. Some structures show a salt or complex split into parts, the way the source records it. Activity calls are given as the source filed them.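 How the source made its calls: active means B-score of calcium response area above 5 SD of library B-scores, with initial fluorescence ratio within 5 SD of library; inactive means the rest.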

For the assay, the target named is Short transient receptor potential channel 4 (Mus musculus) (UniProt Q9QUQ5). Description: positive allosteric modulators of TRPC4, primary screen, cell-based, mouse TRPC4beta, HEK293 mu-opioid, Fluo-4 calcium (AID 2227).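 On B-score: B-score of integrated fluorescence ratio over time as area under calcium response.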 The note with it: DAMGO EC20, Fluo-4 Ca2+ flux, at 10 µM; active compounds read high. For orientation: Calcium assays in cells follow changes in intracellular calcium, usually with a dye or a luminescent sensor.
For `Cc1ccc(N/C(=N/P(=O)(N2CCOCC2)N2CCOCC2)N2CCOCC2)cc1`, the outcome was inactive.
Regarding `NC(=O)c1cc([N+](=O)[O-])cc([N+](=O)[O-])c1N`, the result was inactive.
Consider `CN1CCCC(OC(=O)C(c2ccccc2)c2ccccc2)C1` (centres undefined), for which the outcome was inactive.
On to `CN(C)CCOC(=O)C(O)(c1ccccc1)C1CCCC1` (centres undefined), for which the outcome was inactive.
For the compound `Clc1ccc(Cl)c(NC2=NCC(CBr)S2)c1` (centres undefined), the result was inactive.
Still for that read-out and setting: as for `COc1ccccc1OP(=O)(Nc1ccc(C)cn1)Oc1ccccc1OC`, the entry is “inactive”.
Take `COc1ccc(OP(C)(=O)Nc2ccccn2)cc1` (centres undefined): the outcome was inactive.
In the case of `Cc1ccc(OP(=O)(Nc2nccs2)Oc2ccc(C)cc2)cc1`, the result was inactive.
`Oc1ccccc1CNc1ccccn1`: the outcome was inactive.
Take `O=C(NC(Sc1ccncn1)C(Cl)(Cl)Cl)c1ccccc1` (centres undefined): the result was inactive.
With `Cc1c2non([O-])c-2c(C)[n+](=O)[n+]1[O-]`, the result was inactive.
On to `Nc1cc(N)c2nonc2c1[N+](=O)[O-]`, for which the result was inactive.
`Cc1c(NP(C)(=O)Oc2ccc(C(C)C)cc2)c(=O)n(-c2ccccc2)n1C` (centres undefined): the result was inactive.
Still for that read-out and setting: the same measure for `O=[N+]([O-])c1cc([N+](=O)[O-])c(Nc2ccccn2)c([N+](=O)[O-])c1`: “inactive”.
In the case of `CC(C)CC(=O)NC(Sc1ccc(Cl)cc1)C(Cl)(Cl)Cl` (centres undefined), the result was inactive.
Same read-out and setting: as for `CCc1ccc(OP(C)(=O)O)cc1`, the entry is “inactive”; as for `CP(=O)(Nc1ccccn1)Oc1ccccc1` (centres undefined), “inactive”.
Still for that read-out and setting: the same measure for `COc1ccccc1OP(C)(=O)Nc1ccc(C)cc1C` (centres undefined): “inactive”.
Same read-out and setting: the same measure for `O=P(Nc1nc2ccc(Cl)cc2s1)(c1ccccc1)c1ccccc1`: “inactive”.
With `Cc1cc(C)cc(OP(C)(=O)Nc2cccc(C(F)(F)F)c2)c1` (centres undefined), the outcome was inactive.
Same read-out and setting: as for `CC(=O)Nc1ccc([As](=O)(O)O)cc1`, the entry is “inactive”.
As to `O=C(O)c1ccccc1[As](=O)(O)O`, the result was inactive.
On the same count and under the same terms, the same measure for `COc1ccc(OP(C)(=O)Nc2ccccc2Br)cc1` (centres undefined): “inactive”; for `Cc1cc(SC(NC(=O)c2ccc(F)cc2)C(Cl)(Cl)Cl)ncn1` (centres undefined): “inactive”.
Turning to `CCOP(=O)(Nc1ccccc1)OCC`, the outcome was inactive.
Same read-out and setting: the same measure for `COc1ccccc1OP(C)(=O)Nc1ccc(C)c(C)c1` (centres undefined): “inactive”; for `CN(C(=O)Cc1ccc(Cl)c(Cl)c1)[C@H]1CCCC[C@@H]1N1CCCC1`: “inactive”.
Still for that read-out and setting: the same measure for `Cc1ccc(NP(=O)(Oc2ccccc2F)Oc2ccccc2F)nc1`: “inactive”; for `O=[N+]([O-])c1cc([N+](=O)[O-])c(CCN2CCOCC2)c([N+](=O)[O-])c1`: “inactive”.
On to `Cc1nc2ccc3ccccc3c2o1.O=[N+]([O-])c1cc([N+](=O)[O-])c(O)c([N+](=O)[O-])c1`, for which the result was inactive.
Still for that read-out and setting: the same measure for `Nc1cccc2ccc([As](=O)(O)O)cc12`: “inactive”; for `CP(=O)(Nc1ccc(Cl)cc1Cl)Oc1ccccc1` (centres undefined): “inactive”; for `CP(=O)(OCCOc1ccccc1)OCCOc1ccccc1`: “inactive”.
Take `CCN(N=Nc1nonc1N)c1nonc1N`: the result was inactive.
As to `c1ccc(-c2nn[nH]n2)c(-c2nn[nH]n2)c1`, the outcome was inactive.
The same measure, in the same setting: the same measure for `Cc1ccc(NP(=O)(Oc2cccc(C)c2)Oc2cccc(C)c2)nc1`: “inactive”.
Same read-out and setting: as for `CCOC(=O)NC(Sc1ccccc1)C(Cl)(Cl)Cl` (centres undefined), the entry is “inactive”.
Consider `O=C(NC1CCS(=O)(=O)C1)NP(=S)(Oc1ccccc1)Oc1ccccc1` (centres undefined), for which the result was inactive.
Still for that read-out and setting: as for `CCNC(=S)/N=C(\N)N[N+](=O)[O-]`, the entry is “inactive”; as for `COc1ccc(OP(C)(=O)Nc2ccc(SC(F)(F)F)cc2)cc1` (centres undefined), “inactive”.
Still for that read-out and setting: the same measure for `CCOC(=O)c1ccc(NP(C)(=O)Oc2ccc(F)cc2)cc1` (centres undefined): “inactive”.
Take `O=C(OC1CN2CCC1CC2)c1ccccc1` (centres undefined): the result was inactive.
With `CCC(=O)N1C2C3N(C(=O)CC)C1C1N(C(=O)CC)C(C(N1C(=O)CC)N3C(=O)CC)N2C(=O)CC`, the result was inactive.
Take `CCN(CC)CCCOC(=O)C(O)(c1ccccc1)C1CCCCC1` (centres undefined): the B-score is active: 10.
Consider `COC(=O)c1cc2c(s1)N=C(c1ccccc1)N(C)P2(=O)N1CCOCC1` (centres undefined), for which the result was inactive.
Take `CC(=O)NC(SC(=S)N(CC(C)C)CC(C)C)C(Cl)(Cl)Cl` (centres undefined): the outcome was inactive.
On to `Cc1ccc(OP(=O)(Nc2ccccn2)Oc2ccc(C)cc2)cc1`, for which the result was inactive.
As for `Cc1ccccc1OP(=O)(Nc1ccccn1)Oc1ccccc1C`, the outcome was inactive.
Same read-out and setting: as for `CCCCCOc1ccc(NP(C)(=O)Oc2ccc(Cl)cc2Cl)cc1` (centres undefined), the entry is “inactive”; as for `O=[N+]([O-])c1cc([N+](=O)[O-])c(OC2CCCCC2O)c([N+](=O)[O-])c1` (centres undefined), “inactive”.
With `CN(C)C(=O)Oc1noc2ccccc12`, the outcome was inactive.
Take `CP(=O)(Nc1ccccc1)Oc1ccc(F)cc1` (centres undefined): the outcome was inactive.
The same measure, in the same setting: the same measure for `O=P1(Nc2nc3ccc(Cl)cc3s2)COc2ccccc2O1` (centres undefined): “inactive”; for `CCOc1ccc(C2=NCC(CBr)S2)cc1` (centres undefined): “inactive”.
As for `CC(C)(C)C(=O)NC(Sc1ccccc1)C(Cl)(Cl)Cl` (centres undefined), the result was inactive.
On the same count and under the same terms, the same measure for `CC(C)c1ccc(OP(C)(=O)Nc2ccc(SC(F)(F)F)cc2)cc1` (centres undefined): “inactive”; for `CP(=O)(Nc1ccccc1F)Oc1ccccc1` (centres undefined): “inactive”.
Same read-out and setting: the same measure for `O=C(OCCN1CCN(CCOCc2ccccc2)CC1)C(O)(c1ccccc1)c1ccccc1`: “inactive”; for `C[C@H]1OP(=O)(Oc2ccccc2)C[C@@H]2O[C@@H]21` (some centres undefined): “inactive”.
In the case of `C[C@@H]1C=CCP(=O)(Oc2ccccc2)O1` (some centres undefined), the outcome was inactive.
Turning to `CC(=O)c1ccc(N2CC2c2ccncc2)cc1` (centres undefined), the outcome was inactive.
On the same count and under the same terms, as for `O=C(OC1CN2CCC1CC2)c1ccc([N+](=O)[O-])cc1` (centres undefined), the entry is “inactive”.
Still for that read-out and setting: as for `CC(=O)Nc1ccc([As](=O)(O)O)c(O)c1`, the entry is “inactive”; as for `COc1ccc2c(c1O)-c1c(O)c(OC)cc3c1[C@H](C2)[N+](C)(C)CC3.O=[N+]([O-])c1cc([N+](=O)[O-])c([O-])c([N+](=O)[O-])c1[O-]`, “inactive”.
Same read-out and setting: as for `CC(=O)Nc1ccc(Oc2c([N+](=O)[O-])cc([N+](=O)[O-])cc2[N+](=O)[O-])cc1`, the entry is “inactive”; as for `O=P(Nc1nccs1)(c1ccccc1)c1ccccc1`, “inactive”; as for `CC(C)C(=O)NC(Sc1ccccc1)C(Cl)(Cl)Cl` (centres undefined), “inactive”.
Take `CP(=O)(Nc1ccc(SC(F)(F)F)cc1)Oc1ccc(F)cc1` (centres undefined): the outcome was inactive.
In the case of `c1nnnn1CCn1cnnn1`, the outcome was inactive.
On to `CCOP(C)(=S)SCC(=O)NC(C)(CC)C(=O)O` (centres undefined), for which the result was inactive.
On the same count and under the same terms, the same measure for `CP(=O)(Nc1ccc2c(c1)OCCO2)Oc1ccccc1` (centres undefined): “inactive”; for `CN(C)C1(CNC(=O)c2ccc(Cl)c(S(N)(=O)=O)c2)CCCCC1`: “inactive”; for `O=P(Nc1ccccn1)(c1ccc(Br)cc1)c1ccc(Br)cc1`: “inactive”.
Still for that read-out and setting: as for `COc1ccc(OP(C)(=O)Nc2cccc(Br)c2)cc1` (centres undefined), the entry is “inactive”; as for `COc1ccc(NP(C)(=O)Oc2ccccc2OC)cc1` (centres undefined), “inactive”.
On the same count and under the same terms, the same measure for `O=P(Nc1nc2ccccc2s1)(c1ccccc1)c1ccccc1`: “inactive”.
Consider `CN(C)CCOC(=O)C(O)(c1ccccc1)C1CCCCC1` (centres undefined), for which the result was inactive.
On the same count and under the same terms, as for `C[C@H]1OP(=O)(Oc2ccccc2)[C@H](O)[C@H](O)[C@H]1N=[N+]=[N-]` (some centres undefined), the entry is “inactive”; as for `O=[As](O)(c1ccccc1)c1ccc(O)cc1`, “inactive”.
On the same count and under the same terms, the same measure for `Cc1cc(-c2cccc3ccccc23)c(C)cn1.O=[N+]([O-])c1cc([N+](=O)[O-])c(O)c([N+](=O)[O-])c1`: “inactive”; for `O=[N+]([O-])c1cc([N+](=O)[O-])c(NCC2CCS(=O)(=O)C2)c([N+](=O)[O-])c1` (centres undefined): “inactive”; for `CC(=O)NC(SC(=S)N(C)C)C(Cl)(Cl)Cl` (centres undefined): “inactive”.
Regarding `O=[N+]([O-])c1ccc(OP2(=O)COCCO2)cc1` (centres undefined), the result was inactive.
Same read-out and setting: as for `O=[N+]([O-])c1ncn(CCn2cnc([N+](=O)[O-])n2)n1`, the entry is “inactive”.
Regarding `O=[N+]([O-])c1ccc(O)c(/C=N/Nc2ccc([N+](=O)[O-])cc2[N+](=O)[O-])c1`, the outcome was inactive.
Same read-out and setting: the same measure for `O=C(OC1CN2CCC1CC2)c1cccc(Cl)c1` (centres undefined): “inactive”.
For `C(Cc1nn[nH]n1)Cc1nn[nH]n1`, the outcome was inactive.
With `Nc1ccc([As](=O)(O)c2ccc([N+](=O)[O-])cc2)cc1`, the result was inactive.
On the same count and under the same terms, the same measure for `Cc1nn(-c2ccccc2)c2c1P(=O)(N1CCOCC1)N(C)C(c1ccccc1)=N2` (centres undefined): “inactive”; for `Cc1ccc(C(=O)OC2CN3CCC2CC3)cc1` (centres undefined): “inactive”.
With `CC1CCC(C(C)C)C(OP(=O)(Nc2ccccn2)c2ccccc2)C1` (centres undefined), the outcome was inactive.
For `COc1cc(C2NCCC3(OCCO3)C2(C)C)cc(OC)c1OC.O=[N+]([O-])c1cc([N+](=O)[O-])c(O)c([N+](=O)[O-])c1` (centres undefined), the outcome was inactive.
`CN(C)C1(CNC(=O)c2ccc(S(C)(=O)=O)cc2)CCCCC1`: the outcome was inactive.
Same read-out and setting: the same measure for `O=[N+]([O-])c1cc([N+](=O)[O-])c(Nc2nnnn2CCO)c([N+](=O)[O-])c1`: “inactive”.
`CCOC(=O)C(CC)C1=NC(C)(C)Cc2ccccc21.O=[N+]([O-])c1cc([N+](=O)[O-])c(O)c([N+](=O)[O-])c1` (centres undefined): the outcome was inactive.
`O=C(/C=C/c1ccccc1)OC1CN2CCC1CC2` (centres undefined): the outcome was inactive.
Regarding `CN1CCCCC1COC(=O)C1(O)c2ccccc2CCc2ccccc21` (centres undefined), the result was inactive.
Same read-out and setting: as for `COc1ccccc1OP(C)(=O)Nc1c(C)cccc1C` (centres undefined), the entry is “inactive”; as for `O=P1(Nc2ncccn2)COc2ccccc2OC1`, “inactive”.
Same read-out and setting: as for `CCCOc1ccc(NP(C)(=O)Oc2ccc(Cl)cc2)cc1` (centres undefined), the entry is “inactive”.
The same measure, in the same setting: as for `Nc1cccc([As](=O)(O)c2ccccc2)c1`, the entry is “inactive”; as for `CP(=O)(Nc1ccc(SC(F)(F)F)cc1)Oc1ccccc1` (centres undefined), “inactive”.
Turning to `Cc1ccc(OCC(=O)OC2CN3CCC2CC3)cc1` (centres undefined), the result was inactive.
In the case of `O=[As](O)(c1cccs1)c1cccs1`, the outcome was inactive.
The same measure, in the same setting: as for `O=P1(Nc2ccc(Br)cn2)COc2ccccc2OC1`, the entry is “inactive”.
Still for that read-out and setting: the same measure for `CCC1=CC2Cc3nc4ccc(Cl)cc4c(N)c3C(C1)C2` (centres undefined): “inactive”; for `O=P1(Nc2ccccn2)COc2ccccc2OC1`: “inactive”; for `O=[N+]([O-])c1cc([N+](=O)[O-])c(-n2nnc3ccccc32)c([N+](=O)[O-])c1`: “inactive”.
For the compound `CCOP(=O)(NC(=NC(C)c1ccccc1)NC(C)c1ccccc1)OCC` (centres undefined), the result was inactive.
Still for that read-out and setting: as for `CCOP(=O)(Nc1ccc(C)cn1)OCC`, the entry is “inactive”.
On the same count and under the same terms, the same measure for `CN(CCCl)Cc1cc(Cl)c(NC2=NCCN2)c(Cl)c1`: “inactive”.
On to `Clc1n[nH]nc1-c1nn[nH][15n]1`, for which the outcome was inactive.
Same read-out and setting: the same measure for `CC(C)(C)C(=O)NC(Sc1ncccn1)C(Cl)(Cl)Cl` (centres undefined): “inactive”; for `O=[N+]([O-])c1cc([N+](=O)[O-])c(-c2cnn(-c3ccccc3)c2)c([N+](=O)[O-])c1`: “inactive”.
